Data: publication PMC6271856, “Leishmanicidal Evaluation of Tetrahydroprotoberberine and Spirocyclic Erythrina-Alkaloids” (Molecules, 2014)

Tested on: J774 macrophage cell line (J774A.1)
Experiment: Macrophages in vitro cytotoxic assay (MTT)
Details: J774A.1 macrophages, 48 h treatment

## COC1CC23C(=CC(=O)N2CCc2cc4c(cc23)OCO4)C2OC12 (stereo not shown)
  Macrophage cells (J774) CC50: 47.66 µg/mL
